Test results published in patent US20070135514A1, “Methods for the identification of agents for the treatment of seizures, neurological diseases, endocrinopathies and hormonal diseases” (priority 2002, published 2007).

Protein sequences, listed by entry. Tags and fused reporters are not part of them.
UniProt Q02563, whole entry: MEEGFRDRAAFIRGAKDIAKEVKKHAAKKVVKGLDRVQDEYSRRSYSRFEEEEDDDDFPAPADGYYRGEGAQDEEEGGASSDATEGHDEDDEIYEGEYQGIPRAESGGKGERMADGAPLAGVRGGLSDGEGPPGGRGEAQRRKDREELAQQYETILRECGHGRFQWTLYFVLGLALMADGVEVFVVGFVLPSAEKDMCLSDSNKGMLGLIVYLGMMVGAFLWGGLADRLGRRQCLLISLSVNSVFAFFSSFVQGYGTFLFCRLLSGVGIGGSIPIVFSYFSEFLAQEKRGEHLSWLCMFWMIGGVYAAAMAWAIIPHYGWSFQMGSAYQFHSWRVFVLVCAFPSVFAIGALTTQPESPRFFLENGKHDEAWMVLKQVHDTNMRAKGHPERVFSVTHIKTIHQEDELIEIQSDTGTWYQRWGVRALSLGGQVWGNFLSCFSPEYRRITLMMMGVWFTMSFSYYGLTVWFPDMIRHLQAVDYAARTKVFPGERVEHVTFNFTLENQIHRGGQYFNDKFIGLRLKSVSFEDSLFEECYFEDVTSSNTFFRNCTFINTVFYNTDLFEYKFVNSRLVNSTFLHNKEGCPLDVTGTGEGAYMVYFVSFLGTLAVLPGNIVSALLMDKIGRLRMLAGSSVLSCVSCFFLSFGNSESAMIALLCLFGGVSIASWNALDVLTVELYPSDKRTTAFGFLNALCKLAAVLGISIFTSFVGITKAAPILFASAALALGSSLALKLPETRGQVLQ

Columns and labels:
[1] = target: T1, levetiracetam binding site (LBS) (Rattus norvegicus, UniProt Q02563); assay: [3H]ucb 30889 binding to crude rat brain membranes (kinetic, saturation, competition); conditions: substance used as radioligand
T1 construct: host or cells: crude rat brain membranes (Noyer et al. 1995; Gillard et al. 2003)
Experimental: This example describes the binding properties of [^3H]ucb 30889, (2S)-2-[4-(3-azidophenyl)-2-oxopyrrolidin-1-yl]butanamide, an analogue of levetiracetam. Binding experiments were conducted on crude rat brain membranes at 4° C. as described in Noyer et al. (Euro. J. Pharmacol. 286:137-146 (1995)). Incubation time for equilibrium studies was 120 min. For kinetic and competition studies, [^3H]ucb 30889 (30 Ci/mmol) was used at a concentration of 1.3 nM in 0.5 ml of a Tris-HCl (pH 7.4) buffer containing 2 mM Mg^2+. Localization of the LBS in brain substructures was assessed by autoradiography on 25 μm thick slices incubated under similar conditions. Slides were then washed twice for 10 min at 4° C. in 50 mM Tris-HCl (pH 7.4) containing 0.5% BSA, dried and exposed for 3 weeks to [^3H]Hyperfilm at −20° C. Non-specific binding (NSB) was determined by the inclusion of 1 mM LEV during the incubation period.

[2] = target: T1, levetiracetam binding site (LBS); conditions: cited from earlier work

SMILES: CC[C@@H](C(N)=O)N1CCCC1=O [levetiracetam, (S)-α-ethyl-2-oxo-1-pyrrolidine acetamide]
- Bmax (saturation binding) [1]: 4718±413 fmol/mg protein

SMILES: CC[C@@H](C(N)=O)N1CCCC1=O [ucb L060]
- affinity relative to levetiracetam (times less) [2]: about 1000 times
